Reference: patent US9499482B2, “Pyrrolone or pyrrolidinone melanin concentrating hormone receptor-1 antagonists” (BRISTOL-MYERS SQUIBB COMPANY, priority 2012, dated 2016)

Protein sequences, listed by entry. Tags and fused reporters are not part of them.
UniProt Q99705, whole entry E4Q/A5T: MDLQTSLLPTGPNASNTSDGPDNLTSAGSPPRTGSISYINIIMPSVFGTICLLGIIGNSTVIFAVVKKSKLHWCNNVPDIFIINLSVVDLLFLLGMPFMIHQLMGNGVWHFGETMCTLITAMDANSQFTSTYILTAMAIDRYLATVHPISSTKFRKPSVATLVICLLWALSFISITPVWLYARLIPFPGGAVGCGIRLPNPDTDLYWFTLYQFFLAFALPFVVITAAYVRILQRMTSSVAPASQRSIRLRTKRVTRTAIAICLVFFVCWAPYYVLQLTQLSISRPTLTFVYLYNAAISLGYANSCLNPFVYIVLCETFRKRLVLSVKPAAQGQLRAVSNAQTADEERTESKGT

target: human melanin concentrating hormone receptor (MCHR1), mutated (E4Q, A5T) hMCHR1 (Homo sapiens (Human), UniProt Q99705, A5T/E4Q); assay: Radioligand binding assay for assessment of MCHR1 activity ([125I]-MCH competition, HEK-293 membranes); conditions: Table G
Experimental: Radioligand Binding Assay for Assessment of MCHR1 Activity
An in vitro binding assay was used to determine the compound Ki value or ability to antagonize binding of a peptide agonist to the human melanin concentrating hormone receptor (MCHR1). Membranes from stably transfected HEK-293 cells expressing a mutated (E4Q, A5T) hMCHR1 receptor were prepared by dounce homogenization and differential centrifugation. […] Filters were dried, 0.05 mL MicroScint 20 was added to each well and radioactivity was subsequently quantified by scintillation counting on a TOPCOUNT® microplate scintillation counter (Packard). Inhibitory constants were determined by nonlinear least squares analysis using a four parameter logistic equation.

Row | Ki [nM] | SMILES
1 | 0.7 | COc1cc(N2CC=C(Oc3ccc(-c4ccccc4)cc3)C2=O)ccc1OCCN1CC(OC)C1 [Example 219]
2 | 0.7 | COc1cc(N2CC=C(Oc3ccc(-c4ccccc4)cc3)C2=O)ccc1OCCN1CC(NC(=O)OC(C)(C)C)C1 [Example 218]
3 | 1 | COc1cc(N2CC=C(Oc3ccc(-c4ccccc4)cc3)C2=O)ccc1OCCN1CCC[C@@H]1CO [Example 215]

same assay, conditions: Table I

Row | Ki [nM] | SMILES
4 | 23 | O=C1C(Oc2ccc(C3CC3)cc2)=CCN1[C@H]1CC[C@H](OCCN2CCC[C@H]2CO)CC1 [Example 247]

same assay, conditions: Table J

Row | Ki [nM] | SMILES
5 | 1.7 | O=C1C(Oc2ccc(C3CC3)cc2)=CCN1c1ccc2c(cnn2CCN2CCC[C@H]2CO)c1 [Example 261]
6 | 9.5 | O=C1C(Oc2ccc(C3CC3)cc2)=CCN1c1ccc2c(cnn2CCN2CCC(F)(F)CC2)c1 [Example 258]
7 | 1.1 | O=C1C(Oc2ccc(C3CC3)cc2)=CCN1c1ccc2c(cnn2CCN2CC[C@@H](F)C2)c1 [Example 262]

same assay, conditions: membranes from HEK-293 cells expressing mutated (E4Q, A5T) hMCHR1; 0.06-0.1 nM [Phe13,[125I]Tyr19]-MCH

Row | SMILES | Ki [nM]
8 | CC(=O)N1CCN(CCOc2ccc(N3CC[C@H](Oc4ccc(C5CC5)cc4)C3=O)cc2C)CC1 [Example 67] | 2
9 | COc1cc(N2CC[C@H](Oc3ccc(C4CC4)cc3)C2=O)ccc1OCCN1CC[C@@H](N)C1 [Example 34] | 4
10 | CCc1cc(N2CC[C@H](Oc3ccc(C4CC4)cc3)C2=O)ccc1OCCN1CCCC1 [Example 41, S-3-(4-Cyclopropylphenoxy)-1-(3-ethyl-4-(2-(pyrrolidin-1-yl)ethoxy)phenyl)pyrrolidin-2-one] | 1.6
11 | COC[C@@H]1CCCN1CCOc1ccc(N2CC[C@H](Oc3ccc(C4CC4)cc3)C2=O)cc1C [Example 81] | 1.2
12 | Cc1cc(N2CC[C@H](Oc3ccc(C4CC4)cc3)C2=O)ccc1OCCN1CC2(COC2)C1 [Example 73] | 1.4
13 | Cc1cc(N2CC[C@H](Oc3ccc(C4CC4)cc3)C2=O)ccc1OCCN1CCC[C@H]1C(N)=O [Example 82] | 2
14 | COc1cc(N2CC[C@H](Oc3ccc(C4CC4)cc3)C2=O)ccc1OCCN(C)S(C)(=O)=O [Example 117] | 6
15 | CC(=O)N[C@@H]1CCN(CCOc2ccc(N3CC[C@H](Oc4ccc(C5CC5)cc4)C3=O)cc2C)C1 [Example 68] | 1.2
16 | Cc1cc(N2CC[C@H](Oc3ccc(C4CC4)cc3)C2=O)ccc1OCCN(C)CCO [Example 77] | 1.3
17 | COc1cc(N2CC[C@H](Oc3ccc(C4CC4)cc3)C2=O)ccc1OCCN1CCC(N2CCOCC2)C1 (stereo partly shown) [Example 30] | 2
18 | Cc1cc(N2CC[C@@H](Oc3ccc(-c4ccccc4)cc3)C2=O)ccc1OCCN1CCCC1 (stereo in doubt) [Example 113, 3-(biphenyl-4-yloxy)-1-(3-methyl-4-(2-(pyrrolidin-1-yl)ethoxy)phenyl)pyrrolidin-2-one] | 15
19 | CCc1cc(N2CC[C@H](Oc3ccc(C4CC4)cc3)C2=O)ccc1OCCNC [Example 59] | 3
20 | CCc1cc(N2CC[C@H](Oc3ccc(C4CC4)cc3)C2=O)ccc1OCCN(C)S(C)(=O)=O [Example 133] | 5
21 | Cc1cc(N2CC[C@H](Oc3ccc(C4CC4)cc3)C2=O)ccc1OCCN1CCCC1 [Example 63, S-3-(4-Cyclopropylphenoxy)-1-(3-methyl-4-(2-(pyrrolidin-1-yl)ethoxy)phenyl)pyrrolidin-2-one] | 1.2
22 | COc1cc(N2CC[C@H](Oc3ccc(C4CC4)cc3)C2=O)ccc1OCCN1CCOCC1 [Example 17] | 3
23 | COc1cc(N2CC[C@H](Oc3ccc(C4CC4)cc3)C2=O)ccc1OCCN(C)S(=O)(=O)C1CC1 [Example 125] | 6
24 | Cc1cc(N2CC[C@H](Oc3ccc(-c4ccccc4)cc3)C2=O)ccc1OCCN1CCCC1 (stereo in doubt) [Example 112, 3-(biphenyl-4-yloxy)-1-(3-methyl-4-(2-(pyrrolidin-1-yl)ethoxy)phenyl)pyrrolidin-2-one] | 0.5
25 | COc1cc(N2CC[C@H](Oc3ccc(C4CC4)cc3)C2=O)ccc1OCCN1CC[C@@H](OC)C1 [Example 31] | 1.8
26 | CCc1cc(N2CC[C@H](Oc3ccc(C4CC4)cc3)C2=O)ccc1OCCN1CCC[C@@H]1OC [Example 61] | 1.4
27 | CCc1cc(N2CC[C@H](Oc3ccc(C4CC4)cc3)C2=O)ccc1OCCNC(C)=O [Example 132] | 13
28 | CCc1cc(N2CC[C@H](Oc3ccc(C4CC4)cc3)C2=O)ccc1OCCN [Example 60] | 4
29 | CCc1cc(N2CC[C@H](Oc3ccc(C4CC4)cc3)C2=O)ccc1OCCN1CC[C@@H](OC)C1 [Example 57] | 0.8
30 | COc1cc(N2CC[C@H](Oc3ccc(C4CC4)cc3)C2=O)ccc1OCCN1CCNCC1 [Example 36] | 5
31 | Cc1cc(N2CC[C@H](Oc3ccc(C4CC4)cc3)C2=O)ccc1OCCNCCO [Example 83] | 1.2
32 | CCc1cc(N2CC[C@H](Oc3ccc(C4CC4)cc3)C2=O)ccc1OCCN1CCC(F)(F)C1 [Example 46] | 15
33 | COc1cc(N2CC[C@H](Oc3ccc(C4CC4)cc3)C2=O)ccc1OCCN(C)C(C)=O [Example 116, (S)—N-(2-(4-(3-(4-Cyclopropylphenoxy)-2-oxopyrrolidin-1-yl)-2-methoxyphenoxy)ethyl)-N-methylacetamide] | 6
34 | CCc1cc(N2CC[C@H](Oc3ccc(C4CC4)cc3)C2=O)ccc1OCCN1CCC[C@H]1CO [Example 54] | 1.5

Continued, values first:

Row | Ki [nM] | SMILES
35 | 939 | O=C1C(Oc2ccc(C3CC3)cc2)=CCN1[C@H]1C[C@@H](OCCN2CCCC2)C1 [Example 232, 3-(4-Cyclopropylphenoxy)-1-(cis-3-(2-(pyrrolidin-1-yl)ethoxy)cyclobutyl)-1H-pyrrol-2(5H)-one]
36 | 1.7 | O=C1C(Oc2ccc(C3CC3)cc2)=CCN1c1ccc(OCCN2CC[C@@H](O)C2)c(C2CC2)c1 [Example 208]
37 | 0.9 | CCc1cc(N2CC=C(Oc3ccc(C4CC4)cc3)C2=O)ccc1OCCN1CCCCC1 [Example 177]
38 | 5.9 | CCc1cc(N2CC=C(Oc3ccc(C4CC4)cc3)C2=O)ccc1OCCN1CC(O)(C(F)(F)F)C1 [Example 170]
39 | 128 | O=C1C(Oc2ccc(C3CC3)cc2)=CCN1[C@H]1C[C@@H](OCCN2CC[C@H](O)C2)C1 [Example 238]
40 | 0.4 | COc1cc(N2CC=C(Oc3ccc(C4CC4)cc3)C2=O)ccc1OCCN1CC[C@@H](NC(=O)C(F)(F)F)C1 [Example 153]
41 | 0.6 | CCc1cc(N2CC=C(Oc3ccc(C4CC4)cc3)C2=O)ccc1OCCN1CC(NC(=O)OC(C)(C)C)C1 [Example 171]
42 | 2.7 | N#CC1CN(CCOc2ccc(N3CC=C(Oc4ccc(C5CC5)cc4)C3=O)cc2OC(F)F)C1 [Example 188]
43 | 0.9 | O=C1C(Oc2ccc(C3CC3)cc2)=CCN1c1ccc(OCCN2CC(O)C2)c(C2CC2)c1 [Example 207]
44 | 0.5 | CCc1cc(N2CC=C(Oc3ccc(C4CC4)cc3)C2=O)ccc1OCCN1CC(C)(O)C1 [Example 169]
45 | 1.2 | CC1(O)CN(CCOc2ccc(N3CC=C(Oc4ccc(C5CC5)cc4)C3=O)cc2C2CC2)C1 [Example 209]
46 | 1410 | CS(=O)(=O)C1CN(CCn2cc(N3CC=C(Oc4ccc(C5CC5)cc4)C3=O)cn2)C1 [Example 269]
47 | 339 | COC1CN(CCO[C@H]2C[C@@H](N3CC=C(Oc4ccc(C5CC5)cc4)C3=O)C2)C1 [Example 237]
48 | 0.9 | CCc1cc(N2CC=C(Oc3ccc(C4CC4)cc3)C2=O)ccc1OCCN1CC[C@H](O)C1 [Example 173]
49 | 5.5 | O=C1C(Oc2ccc(C3CC3)cc2)=CCN1c1ccc(OCCN2CCOCC2)c(C2CC2)c1 [Example 206]
